Columns and labels:
5-HT3 receptor = 5-HT3 receptor (Mus musculus, UniProt P23979); assay: serotonin 5-HT3 binding assay (NovaScreen), NIE-115 cells; conditions: 20 mM HEPES pH 7.4, 150 mM NaCl, 25° C., 60 minutes
AChE = AChE (Homo sapiens, UniProt P22303)

Sequences of proteins named here, by UniProt entry; tags and fusion partners are left off. Residues count along the entry.
UniProt P23979, 24-489 limits assumed: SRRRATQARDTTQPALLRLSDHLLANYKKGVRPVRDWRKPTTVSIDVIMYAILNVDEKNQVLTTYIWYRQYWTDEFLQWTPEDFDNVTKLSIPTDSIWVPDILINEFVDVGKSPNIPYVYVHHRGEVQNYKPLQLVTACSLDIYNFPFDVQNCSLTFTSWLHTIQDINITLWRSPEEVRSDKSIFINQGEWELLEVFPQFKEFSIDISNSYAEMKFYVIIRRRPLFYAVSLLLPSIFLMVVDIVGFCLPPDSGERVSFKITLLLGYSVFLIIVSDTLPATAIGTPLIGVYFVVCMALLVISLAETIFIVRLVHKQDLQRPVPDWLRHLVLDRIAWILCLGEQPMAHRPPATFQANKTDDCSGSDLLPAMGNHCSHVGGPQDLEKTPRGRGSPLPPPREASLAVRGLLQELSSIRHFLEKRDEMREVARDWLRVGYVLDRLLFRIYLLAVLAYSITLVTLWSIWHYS
UniProt P22303, 32-614 limits assumed: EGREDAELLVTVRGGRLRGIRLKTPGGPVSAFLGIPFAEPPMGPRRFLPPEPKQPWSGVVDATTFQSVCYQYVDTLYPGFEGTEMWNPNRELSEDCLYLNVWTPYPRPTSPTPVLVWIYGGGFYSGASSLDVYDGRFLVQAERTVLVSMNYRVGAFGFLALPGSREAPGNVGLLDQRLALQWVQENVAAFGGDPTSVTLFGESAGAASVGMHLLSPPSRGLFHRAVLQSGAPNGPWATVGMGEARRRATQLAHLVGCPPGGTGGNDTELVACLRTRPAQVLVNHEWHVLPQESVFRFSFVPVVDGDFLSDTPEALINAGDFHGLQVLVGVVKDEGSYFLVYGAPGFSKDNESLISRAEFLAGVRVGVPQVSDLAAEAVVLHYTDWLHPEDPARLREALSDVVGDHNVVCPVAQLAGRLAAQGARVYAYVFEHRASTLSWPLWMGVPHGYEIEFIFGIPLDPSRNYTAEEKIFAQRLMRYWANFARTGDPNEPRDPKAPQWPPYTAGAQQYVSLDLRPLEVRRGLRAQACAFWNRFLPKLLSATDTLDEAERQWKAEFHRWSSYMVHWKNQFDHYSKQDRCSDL

Nc1c2c(nc3ccccc13)CN(CCC1CCN(Cc3ccccc3)CC1)C2=O
IC50 (5-HT3 receptor): 292 nM
Ki (5-HT3 receptor): 134 nM

CCCOc1c2c(nc3ccccc13)CN(CCC1CCN(Cc3ccccc3)CC1)C2=O
IC50 (5-HT3 receptor): 288 nM
Ki (5-HT3 receptor): 132 nM

COc1c2c(nc3cccc(SC)c13)CN(CCC1CCN(Cc3ccccc3)CC1)C2=O
Ki (5-HT3 receptor): 50.1 nM
IC50 (AChE): 210 nM

CC(C)Oc1c2c(nc3ccccc13)CN(CCC1CCN(Cc3ccccc3)CC1)C2=O
IC50 (5-HT3 receptor): 390 nM
Ki (5-HT3 receptor): 179 nM

N#CCCCCOc1c2c(nc3ccccc13)CN(CCC1CCN(Cc3ccccc3)CC1)C2=O
IC50 (5-HT3 receptor): 216 nM
Ki (5-HT3 receptor): 99.4 nM

O=C1c2c(nc3ccccc3c2NCCC2CCN(Cc3ccccc3)CC2)CN1CCC1CCN(Cc2ccccc2)CC1
IC50 (5-HT3 receptor): 469 nM
Ki (5-HT3 receptor): 215 nM
IC50 (AChE): 83 nM
